Assay results: patent US8278319B2, “Substituted spiroamine compounds” (Gruenenthal GmbH, priority 2008, dated 2012)

By UniProt entry, the sequences of proteins in these tests, tags left out.
UniProt P35372, whole entry, looked up: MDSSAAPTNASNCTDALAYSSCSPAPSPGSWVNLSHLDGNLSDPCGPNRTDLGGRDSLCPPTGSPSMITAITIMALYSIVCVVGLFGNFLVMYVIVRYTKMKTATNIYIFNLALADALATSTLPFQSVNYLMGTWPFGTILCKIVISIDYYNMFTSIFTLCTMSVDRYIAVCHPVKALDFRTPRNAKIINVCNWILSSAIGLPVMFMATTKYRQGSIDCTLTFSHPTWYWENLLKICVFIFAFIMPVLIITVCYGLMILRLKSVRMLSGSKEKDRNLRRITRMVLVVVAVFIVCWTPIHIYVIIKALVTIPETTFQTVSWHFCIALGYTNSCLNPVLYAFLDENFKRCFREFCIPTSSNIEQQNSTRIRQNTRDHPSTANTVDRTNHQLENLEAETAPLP

Target: human μ-opiate receptor (Homo sapiens, UniProt P35372)
Test: Affinity to the human μ-opiate receptor, [3H] naloxone displacement (SPA)
Conditions: test substance 1 μM; inhibition of specific binding of [3H] naloxone; CHO-K1 membrane preparation

| Structure (SMILES) | μ-Opioid receptor [1 μM] % Inhibition |
| --- | --- |
| COc1cc(C)c(S(=O)(=O)N2CCCCC2COCC(=O)N2CCC3(CC2)CCC(c2cccs2)(N(C)C)CC3)c(C)c1 (centres unmarked) [CC-11, 1-(3-Dimethylamino-3-thiophen-2-yl-9-azaspiro[5.5]undecan-9-yl)-2-[[1-[(4-rnethoxy-2,6-dimethyl-phenyl)sulfonyl]-piperidin-2-yl]-methoxy]-ethanone] | 103% |
| COc1cc(C)c(S(=O)(=O)N(CCOCC(=O)N2CCC3(CC2)CCC(c2cccs2)(N(C)C)CC3)C2CC2)c(C)c1 [CC-12, N-Cyclopropyl-N-[2-[2-(3-dimethylamino-3-thiophen-2-yl-9-azaspiro[5.5]undecan-9-yl)-2-oxo-ethoxy]-ethyl]-4-methoxy-2,6-dimethyl-benzenesulfonic acid amide] | 100% |
| Cc1cccc(Cl)c1S(=O)(=O)N1CCCCC1COCC(=O)N1CCC2(CC1)CCC(c1cccs1)(N(C)C)CC2 (centres unmarked) [CC-13, 2-[[1-[(2-Chloro-6-methyl-phenyl)sulfonyl]-piperidin-2-yl]-methoxy]-1-(3-dimethylamino-3-thiophen-2-yl-9-azaspiro[5.5]undecan-9-yl)-ethanone] | 97% |
| CN(C)C1(c2cccs2)CCC2(CCN(C(=O)CC(NS(=O)(=O)c3ccc4ccccc4c3)c3ccccc3)CC2)CC1 (centres unmarked) [CC-15, N-[3-(3-Dimethylamino-3-thiophen-2-yl-9-azaspiro[5.5]undecan-9-yl)-3-oxo-1-phenyl-propyl]-naphthalene-2-sulfonic acid amide] | 105% |
| COc1cc(C)c(S(=O)(=O)N2CCCCC2CCCC(=O)N2CCC3(CC2)CCC(c2cccs2)(N(C)C)CC3)c(C)c1 (centres unmarked) [CC-16, 1-(3-Dimethylamino-3-thiophen-2-yl-9-azaspiro[5.5]undecan-9-yl)-4-[1-[(4-methoxy-2,6-dimethyl-phenyl)sulfonyl]-piperidin-2-yl]-butan-1-one] | 95% |
| COc1cc(C)c(S(=O)(=O)N2CCCCC2COCC(=O)N2CCC3(CC2)CCC(c2ccccc2)(N2CCCC2)CC3)c(C)c1 (centres unmarked) [Compound 1, 2-((1-(4-Methoxy-2,6-dimethylphenylsulfonyl)piperidin-2-yl)methoxy)-1-(9-phenyl-9-(pyrrolidin-1-yl)-3-azaspiro[5.5]undecan-3-yl)ethanone] | 85% |
| COc1cc(C)c(S(=O)(=O)N2CCCC[C@H]2COCC(=O)N2CCC3(CC2)CCC(c2ccccc2)(N(C)C)CC3)c(C)c1 [Compound 2, 1-(9-(Dimethylamino)-9-phenyl-3-azaspiro[5.5]undecan-3-yl)-2-(((S)-1-(4-methoxy-2,6-dimethylphenylsulfonyl)piperidin-2-yl)methoxy)ethanone] | 102% |
| COc1cc(C)c(S(=O)(=O)N(CCOCC(=O)N2CCC3(CC2)CCC(c2ccccc2)(N(C)C)CC3)C2CC2)c(C)c1 [Compound 3, N-Cyclopropyl-N-(2-(2-(9-(dimethylamino)-9-phenyl-3-azaspiro[5.5]undecan-3-yl)-2-oxoethoxy)ethyl)-4-methoxy-2,6-dimethylbenzenesulfonamide] | 100% |
| COc1cc(C)c(S(=O)(=O)N2c3ccccc3C[C@H]2COCC(=O)N2CCC3(CC2)CCC(c2ccccc2)(N(C)C)CC3)c(C)c1 [Compound 4, 1-(9-(Dimethylamino)-9-phenyl-3-azaspiro[5.5]undecan-3-yl)-2-(((S)-1-(4-methoxy-2,6-dimethylphenylsulfonyl)indolin-2-yl)methoxy)ethanone] | 99% |
| Cc1cccc(Cl)c1S(=O)(=O)N1CCCC[C@H]1COCC(=O)N1CCC2(CC1)CCC(c1ccccc1)(N(C)C)CC2 [Compound 6, 2-(((S)-1-(2-Chloro-6-methylphenylsulfonyl)piperidin-2-yl)methoxy)-1-(9-(dimethylamino)-9-phenyl-3-azaspiro[5.5]undecan-3-yl)ethanone] | 98% |
| Cc1cc(S(=O)(=O)N2CCCCC2CCC(=O)N2CCC3(CC2)CCC(c2ccccc2)(N(C)C)CC3)c(C)cc1Cl (centres unmarked) [Compound 7, 3-(1-(4-Chloro-2,5-dimethylphenylsulfonyl)piperidin-2-yl)-1-(9-(dimethylamino)-9-phenyl-3-azaspiro[5.5]undecan-3-yl)propan-1-one] | 101% |
| COc1cc(C)c(S(=O)(=O)N2CCCCC2CCCC(=O)N2CCC3(CC2)CCC(c2ccccc2)(N(C)C)CC3)c(C)c1 (centres unmarked) [Compound 8, 1-(9-(Dimethylamino)-9-phenyl-3-azaspiro[5.5]undecan-3-yl)-4-(1-(4-methoxy-2,6-dimethylphenylsulfonyl)piperidin-2-yl)butan-1-one] | 103% |
| CN(C)C1(c2ccccc2)CCC2(CCN(C(=O)CC3CCCCN3S(=O)(=O)c3cccc(C(F)(F)F)c3)CC2)CC1 (centres unmarked) [Compound 9, 1-(9-(Dimethylamino)-9-phenyl-3-azaspiro[5.5]undecan-3-yl)-2-(1-(3-(trifluoromethyl)phenylsulfonyl)piperidin-2-yl)ethan-1-one] | 103% |
| COc1cc(C)c(S(=O)(=O)N2C=CNC(=O)[C@H]2CC(=O)N2CCC3(CC2)CCC(c2ccccc2)(N(C)C)CC3)c(C)c1 [Compound 10, (3R)-3-(2-(9-(Dimethylamino)-9-phenyl-3-azaspiro[5.5]undecan-3-yl)-2-oxoethyl)-4-(4-methoxy-2,6-dimethylphenylsulfonyl)-3,4-dihydropyrazin-2(1H)-one] | 96% |
| COc1cc(C)c(S(=O)(=O)N2CCCC[C@H]2COCC(=O)N2CCC3(CC2)CCC(c2cccc(F)c2)(N(C)C)CC3)c(C)c1 [Compound 11, 1-(9-(Dimethylamino)-9-(3-fluorophenyl)-3-azaspiro[5.5]undecan-3-yl)-2-(((S)-1-(4-methoxy-2,6-dimethylphenylsulfonyl)piperidin-2-yl)methoxy)ethanone] | 106% |
| COc1cc(C)c(S(=O)(=O)N2CCCC[C@H]2COCC(=O)N2CCC3(CC2)CCC(c2ccccc2)(N2CCC2)CC3)c(C)c1 [Compound 12, 1-(9-(Azetidin-1-yl)-9-phenyl-3-azaspiro[5.5]undecan-3-yl)-2-(((S)-1-(4-methoxy-2,6-dimethylphenylsulfonyl)piperidin-2-yl)methoxy)ethanone] | 84% |
| COc1cc(C)c(S(=O)(=O)N2CCCC[C@H]2COCC(=O)N2CCC3(CC2)CCC(c2ccccc2)(N2CC(F)(F)C2)CC3)c(C)c1 [Compound 13, 1-(9-(3,3-Difluoroazetidin-1-yl)-9-phenyl-3-azaspiro[5.5]undecan-3-yl)-2-(((S)-1-(4-methoxy-2,6-dimethylphenylsulfonyl)piperidin-2-yl)methoxy)ethanone] | 2% |
